# Values quoted from earlier work in PubChem BioAssay AID977611 (Shanghai Institute of Organic Chemistry, 2014).
# Tests used:
# Assay in all cases: PubChem AID 977611
# [1] = target: Putative uncharacterized protein ST1526 ,Sua5; settings: PDB protein-ligand complexes, literature Kd; protein: Putative uncharacterized protein ST1526 ,Sua5; PDB entry 3AJE
# dodecin = settings: PDB protein-ligand complexes, literature Kd, protein: dodecin
# [2] = target: Mitogen-activated protein kinase 14 (p38-alpha); settings: PDB protein-ligand complexes, literature Kd; protein: Mitogen-activated protein kinase 14 (p38-alpha); PDB entry 3NEW
# trypsin i = settings: PDB protein-ligand complexes, literature Kd; protein: trypsin i; PDB entry 1UTJ
# trypsinogen = settings: PDB protein-ligand complexes, literature Kd, protein: trypsinogen
# FK506 binding protein = settings: PDB protein-ligand complexes, literature Kd; protein: FK506 binding protein; PDB entry 1FKB
# [3] = target: UBIQUITIN CARBOXYL-TERMINAL HYDROLASE 7; settings: PDB protein-ligand complexes, literature Kd; protein: UBIQUITIN CARBOXYL-TERMINAL HYDROLASE 7; PDB entry 2XXN
# [4] = target: purine nucleoside phosphorylase (PNP); settings: PDB protein-ligand complexes, literature Kd; protein: purine nucleoside phosphorylase (PNP); PDB entry 3K8Q
# [5] = target: Serine/threonine-protein kinase 6, Aurora A Kinase; settings: PDB protein-ligand complexes, literature Kd; protein: Serine/threonine-protein kinase 6, Aurora A Kinase; PDB entry 3MYG
# [6] = target: 6,7-dimethyl-8-ribityllumazine synthase; settings: PDB protein-ligand complexes, literature Kd, protein: 6,7-dimethyl-8-ribityllumazine synthase
# [7] = target: acetyl-coenzyme a carboxylase; settings: PDB protein-ligand complexes, literature Kd; protein: acetyl-coenzyme a carboxylase; PDB entry 1W96
# [8] = target: purine nucleoside phosphorylase; settings: PDB protein-ligand complexes, literature Kd; protein: purine nucleoside phosphorylase; PDB entry 1ODJ
# acetyl-coa carboxylase = settings: PDB protein-ligand complexes, literature Kd; protein: acetyl-coa carboxylase; PDB entry 1W2X
# HIV-1 capsid = settings: PDB protein-ligand complexes, literature Kd; protein: HIV-1 capsid; PDB entry 2XDE
# [9] = target: Human thymidylate synthase R163K; settings: PDB protein-ligand complexes, literature Kd; protein: Human thymidylate synthase R163K; PDB entry 3HB8
# tubulin alpha chain = settings: PDB protein-ligand complexes, literature Kd; protein: tubulin alpha chain; PDB entry 1Z2B
# [10] = target: GLUTAMATE RECEPTOR, IONOTROPIC KAINATE 2; settings: PDB protein-ligand complexes, literature Kd, protein: GLUTAMATE RECEPTOR, IONOTROPIC KAINATE 2
# [11] = target: ATPase family AAA domain-containing protein 2 ATAD2; settings: PDB protein-ligand complexes, literature Kd, protein: ATPase family AAA domain-containing protein 2 ATAD2
# non-catalytic protein 1 = settings: PDB protein-ligand complexes, literature Kd; protein: non-catalytic protein 1; PDB entry 1GWM
# steroid delta-isomerase = settings: PDB protein-ligand complexes, literature Kd, protein: steroid delta-isomerase
# epsin = settings: PDB protein-ligand complexes, literature Kd; protein: epsin; PDB entry 1H0A
# [12] = target: IRON-UPTAKE SYSTEM-BINDING PROTEIN; settings: PDB protein-ligand complexes, literature Kd; protein: IRON-UPTAKE SYSTEM-BINDING PROTEIN; PDB entry 2XUZ
# immunoglobuling e = settings: PDB protein-ligand complexes, literature Kd; protein: immunoglobuling e; PDB entry 1OAR
# fiber protein = settings: PDB protein-ligand complexes, literature Kd, protein: fiber protein
# [13] = target: glutathione s-transferase; settings: PDB protein-ligand complexes, literature Kd, protein: glutathione s-transferase
# [14] = target: 80 kda nuclear cap binding protein; settings: PDB protein-ligand complexes, literature Kd; protein: 80 kda nuclear cap binding protein; PDB entry 1H2U
# flavodoxin = settings: PDB protein-ligand complexes, literature Kd, protein: flavodoxin
# [15] = target: Transporter (E290S mutation); settings: PDB protein-ligand complexes, literature Kd, protein: Transporter (E290S mutation)
# [16] = target: leucine-specific binding protein; settings: PDB protein-ligand complexes, literature Kd; protein: leucine-specific binding protein; PDB entry 1USK
# [17] = target: Platelet aggregation factor Sm-hPAF; settings: PDB protein-ligand complexes, literature Kd; protein: Platelet aggregation factor Sm-hPAF; PDB entry 4GWI
structure (smiles),measurement,setting,value
C[C@@H](O)[C@H](N)C(=O)O,Kd,[1],9.3 µM
Cc1cc2nc3c(=O)[nH]c(=O)nc-3n(C[C@H](O)[C@H](O)[C@H](O)CO)c2cc1C,Kd,dodecin; PDB entry 2CCB,0.0358 µM
O=c1cc(C(F)(F)F)c2c(-c3cccc(C(F)(F)F)c3)[nH]nc2[nH]1,Kd,[2],10 µM
NCc1ccccc1,Kd,trypsin i,144 µM
same,Kd,trypsinogen; PDB entry 1UTN,321 µM
CO[C@H]1C[C@@H]2CC[C@@H](C)[C@@](O)(O2)C(=O)C(=O)N2CCCC[C@H]2C(=O)O[C@H]([C@H](C)C[C@@H]2CC[C@@H](O)[C@H](OC)C2)CC(=O)[C@H](C)/C=C(\C)[C@@H](O)[C@@H](OC)C(=O)[C@H](C)C[C@H](C)/C=C/C=C/C=C/1C,Kd,FK506 binding protein,0.0002 µM
CC[C@H](C)[C@H](NC(=O)[C@H](Cc1c[nH]c2ccccc12)NC(=O)[C@@H](NC(=O)[C@@H](N)CO)C(C)C)C(=O)N1CCC[C@H]1C(=O)N[C@H](C(=O)N[C@@H](CC(N)=O)C(=O)N[C@@H](CCC(=O)O)C(=O)NCC(=O)N[C@@H](C)C(=O)N[C@@H](CO)C(=O)N[C@H](C(=O)N[C@@H](CO)C(=O)NCC(=O)N[C@@H](CCSC)C(=O)O)[C@@H](C)O)C(C)C,Kd,[3],0.39 µM
O=c1[nH]cnc2c(CNC(CO)CO)c[nH]c12,Kd,[4],5.2 pM
CCN(Cc1cc(Nc2nc(C)cn3c(-c4cn[nH]c4)cnc23)sn1)C(C)(C)CO,Kd,[5],0.02 nM
O=c1[nH]c(=O)c2c([nH]1)n(C[C@@H](O)[C@H](O)[C@H](O)CO)c(=O)n2CCCCC(F)(F)P(=O)(O)O,Kd,[6]; PDB entry 2C94,0.15 µM
CO[C@H]1CCCC[C@@H](c2ccccc2)OC(=O)[C@@H](C)[C@@]2(O)O[C@H]([C@@H](C)[C@H](O)[C@H]2OC)[C@@H](C)/C=C/[C@H]1OC,Kd,[7],0.0039 µM
Nc1nc2c(ncn2[C@@H]2O[C@H](CO)[C@@H](O)[C@H]2O)c(=O)[nH]1,Kd,[8],80 µM
Cc1cc2nc3[nH]c(=O)[nH]c(=O)c3nc2cc1C,Kd,dodecin; PDB entry 2CC7,0.00988 µM
O=C(c1c2ccccc2cc2ccccc12)N1CCC(N2CCC[C@@H](C(=O)N3CCOCC3)C2)CC1,Kd,acetyl-coa carboxylase,7.2 µM
Cc1[nH]c2ccccc2c1CC(=O)N[C@@H](Cc1ccccc1)C(=O)N(C)c1ccccc1,Kd,HIV-1 capsid,3.42 µM
O=c1ccn([C@H]2C[C@H](O)[C@@H](COP(=O)(O)O)O2)c(=O)[nH]1,Kd,[9],7.5 µM
CC[C@]1(O)C[C@@H]2CN(CCc3c([nH]c4ccccc34)[C@@](C(=O)OC)(c3cc4c(cc3OC)N(C)[C@H]3[C@@](O)(C(=O)OC)[C@H](OC(C)=O)[C@]5(CC)C=CCN6CC[C@]43[C@@H]65)C2)C1,Kd,tubulin alpha chain,0.4 µM
CC(C)[C@H]1CN[C@H](C(=O)O)[C@H]1CC(=O)O,Kd,[10]; PDB entry 2XXT,0.009 µM
same,Kd,[10]; PDB entry 2XXY,0.0129 µM
NCCCCc1ccccc1,Kd,trypsinogen; PDB entry 1UTP,36000 µM
Cc1cn([C@H]2C[C@H](O)[C@@H](CO)O2)c(=O)[nH]c1=O,Kd,[11]; PDB entry 4qsv,10000 µM
OC[C@H]1O[C@@H](O[C@H]2[C@H](O)[C@@H](O)[C@H](O[C@H]3[C@H](O)[C@@H](O)[C@H](O[C@H]4[C@H](O)[C@@H](O)[C@H](O[C@H]5[C@H](O)[C@@H](O)[C@H](O[C@H]6[C@H](O)[C@@H](O)[C@@H](O)O[C@@H]6CO)O[C@@H]5CO)O[C@@H]4CO)O[C@@H]3CO)O[C@@H]2CO)[C@H](O)[C@@H](O)[C@@H]1O,Kd,non-catalytic protein 1,80 µM
C[C@]12CCc3c(ccc4cc(O)ccc34)[C@@H]1CCC2=O,Kd,steroid delta-isomerase; PDB entry 1OGX,0.81 µM
same,Kd,steroid delta-isomerase; PDB entry 1W6Y,4.4 µM
O=P(O)(O)O[C@@H]1[C@H](O)[C@H](O)[C@@H](OP(=O)(O)O)[C@H](OP(=O)(O)O)[C@H]1O,Kd,epsin,3.6 µM
CC1C=NC(=O)NC1=O (stereo not given),Kd,[11]; PDB entry 4qsu,10000 µM
O=C(N[C@H]1COC(=O)[C@@H](NC(=O)c2cccc(O)c2O)COC(=O)[C@@H](NC(=O)c2cccc(O)c2O)COC1=O)c1cccc(O)c1O,Kd,[12],0.04 µM
O=C1c2ccccc2C(=O)c2c1cc(S(=O)(=O)O)c(O)c2O,Kd,immunoglobuling e,0.04 µM
CC(=O)N[C@H]1[C@H]([C@H](O)[C@H](O)CO)O[C@@](O[C@@H]2[C@@H](O)[C@H](O)O[C@H](CO)[C@@H]2O)(C(=O)O)C[C@@H]1O,Kd,fiber protein; PDB entry 1UXA,5000 µM
same,Kd,fiber protein; PDB entry 1UXB,7000 µM
N[C@@H](CCC(=O)N[C@@H](CS)C(=O)NCC(=O)O)C(=O)O,Kd,[13]; PDB entry 1OE7,3 µM
same,Kd,[13]; PDB entry 1OE8,3 µM
Cn1c[n+]([C@@H]2O[C@H](COP(=O)(O)OP(=O)(O)OP(=O)(O)OC[C@H]3O[C@@H](n4cnc5c(=O)[nH]c(N)nc54)[C@H](O)[C@@H]3O)[C@@H](O)[C@H]2O)c2nc(N)[nH]c(=O)c21,Kd,[14],0.013 µM
O=c1[nH]c(=O)c2c([nH]1)n(C[C@@H](O)[C@H](O)[C@H](O)CO)c(=O)n2CCCCCOP(=O)(O)O,Kd,[6]; PDB entry 2C92,2.11 µM
Cc1cc2c(cc1C)N(C[C@H](O)[C@H](O)[C@H](O)COP(=O)(O)O)c1[nH]c(=O)[nH]c(=O)c1N2,Kd,flavodoxin; PDB entry 1AKU,746 nM
same,Kd,flavodoxin; PDB entry 1AKV,0.0026 nM
CC(C)C[C@H](N)C(=O)O,Kd,[15]; PDB entry 4hmk,0.79 µM
same,Kd,[15]; PDB entry 4hod,0.79 µM
same,Kd,[16],0.4 µM
CC(=O)N[C@@H]1[C@@H](O[C@@H]2O[C@@H](C)[C@@H](O)[C@@H](O)[C@@H]2O)[C@H](O[C@@H]2O[C@H](CO)[C@H](O)[C@H](O)[C@H]2O[C@@H]2O[C@@H](C)[C@@H](O)[C@@H](O)[C@@H]2O)[C@@H](CO)O[C@H]1O,Kd,[17],202 µM
